Among the data in patent publication US9693992B2 (MannKind Corporation, priority 2010, dated 2017) are EC50 values, retold here.

Chains of the proteins cited; added tags and fusions are not shown. Residues count along the entry.
UniProt O75460, 19-977: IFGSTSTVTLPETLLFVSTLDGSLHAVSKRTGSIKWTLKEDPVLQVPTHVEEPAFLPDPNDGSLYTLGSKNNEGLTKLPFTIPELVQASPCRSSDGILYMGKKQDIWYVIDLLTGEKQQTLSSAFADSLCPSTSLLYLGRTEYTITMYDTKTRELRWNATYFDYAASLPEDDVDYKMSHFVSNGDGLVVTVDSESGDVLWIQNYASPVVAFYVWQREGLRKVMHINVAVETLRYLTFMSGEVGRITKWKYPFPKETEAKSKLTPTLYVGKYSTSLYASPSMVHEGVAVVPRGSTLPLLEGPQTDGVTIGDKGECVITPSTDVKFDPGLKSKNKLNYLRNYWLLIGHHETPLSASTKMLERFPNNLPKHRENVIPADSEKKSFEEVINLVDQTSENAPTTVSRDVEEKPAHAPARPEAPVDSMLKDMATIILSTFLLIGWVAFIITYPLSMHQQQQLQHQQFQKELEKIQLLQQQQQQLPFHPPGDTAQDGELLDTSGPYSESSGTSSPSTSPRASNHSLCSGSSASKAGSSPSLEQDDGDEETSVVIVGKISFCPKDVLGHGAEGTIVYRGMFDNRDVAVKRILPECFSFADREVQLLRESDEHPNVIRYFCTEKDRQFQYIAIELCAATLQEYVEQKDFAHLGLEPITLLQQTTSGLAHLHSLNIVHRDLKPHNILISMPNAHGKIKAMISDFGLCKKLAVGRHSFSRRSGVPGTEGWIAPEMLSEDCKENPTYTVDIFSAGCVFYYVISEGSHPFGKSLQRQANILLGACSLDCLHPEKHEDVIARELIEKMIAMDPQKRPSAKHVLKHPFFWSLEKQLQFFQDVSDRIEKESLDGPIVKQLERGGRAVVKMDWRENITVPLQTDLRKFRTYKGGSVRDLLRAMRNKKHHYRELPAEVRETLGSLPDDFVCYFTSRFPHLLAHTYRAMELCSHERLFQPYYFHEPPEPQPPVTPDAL

The target of the assay is IRE-1α (Homo sapiens (Human), UniProt O75460). Description: Cellular EC50: endogenous XBP-1 splicing in myeloma cells (MM.1s, DTT stress, RT-PCR). It is filed as cell-based. The note with it: average cellular EC50, XBP-1 splicing in myeloma cells. How it is done:
Human myeloma MM.1s cells are incubated with a compound for 1.25 hours before stressing the cells with 2 mM dithiothreitol (DTT). After an additional 45 minutes (2 hours total) with compound and DTT, the cells are harvested with TRIZOL® (a mono-phasic solution of phenol and guanidine isothiocyanate), and total RNA is prepared as directed by the manufacturer (Invitrogen). Human XBP-1 is amplified by RT-PCR with the following primers, which flank the 26 base unconventional intron excised by IRE-1α:
RT-PCR of unstressed (U) cells then generates the upper band. When cells are stressed (S) with the endoplasmic reticulum (ER) stressing agent DTT, IRE-1α is activated due to accumulating unfolded protein and the resulting RT-PCR product is 26 base pairs shorter. […] Compound potency reflects SAR in the in vitro enzyme assay.
Compounds which pass specificity assays are assayed for cellular EC50 using endogenous XBP-1 splicing in myeloma cells. XBP-1 is regulated through the excision of a 26 nucleotide intron from the XBP-1 mRNA by the highly specific endoribonuclease activity of IRE-1α. […] This splicing event is used to measure IRE-1α activity on XBP-1 mRNA in cells and tissues.
Briefly, compounds are incubated in the presence or absence of an ER stress agent (e.g., DTT), and the ratio of XBP-1u (unspliced) to XBP-1s (spliced) is quantified by RT-PCR. […]

The term EC50 denotes the concentration giving half of the maximal effect. As to `COc1cc2c(C)c(CC(=O)N3CCOCC3)c(=O)oc2c(C=O)c1O` [Example 167], the EC50 is less than 10 µM.
